{
  "sequences": {"note": "Amino acid sequences for entries named in this document (tags omitted).", "UniProt Q12809, whole entry": "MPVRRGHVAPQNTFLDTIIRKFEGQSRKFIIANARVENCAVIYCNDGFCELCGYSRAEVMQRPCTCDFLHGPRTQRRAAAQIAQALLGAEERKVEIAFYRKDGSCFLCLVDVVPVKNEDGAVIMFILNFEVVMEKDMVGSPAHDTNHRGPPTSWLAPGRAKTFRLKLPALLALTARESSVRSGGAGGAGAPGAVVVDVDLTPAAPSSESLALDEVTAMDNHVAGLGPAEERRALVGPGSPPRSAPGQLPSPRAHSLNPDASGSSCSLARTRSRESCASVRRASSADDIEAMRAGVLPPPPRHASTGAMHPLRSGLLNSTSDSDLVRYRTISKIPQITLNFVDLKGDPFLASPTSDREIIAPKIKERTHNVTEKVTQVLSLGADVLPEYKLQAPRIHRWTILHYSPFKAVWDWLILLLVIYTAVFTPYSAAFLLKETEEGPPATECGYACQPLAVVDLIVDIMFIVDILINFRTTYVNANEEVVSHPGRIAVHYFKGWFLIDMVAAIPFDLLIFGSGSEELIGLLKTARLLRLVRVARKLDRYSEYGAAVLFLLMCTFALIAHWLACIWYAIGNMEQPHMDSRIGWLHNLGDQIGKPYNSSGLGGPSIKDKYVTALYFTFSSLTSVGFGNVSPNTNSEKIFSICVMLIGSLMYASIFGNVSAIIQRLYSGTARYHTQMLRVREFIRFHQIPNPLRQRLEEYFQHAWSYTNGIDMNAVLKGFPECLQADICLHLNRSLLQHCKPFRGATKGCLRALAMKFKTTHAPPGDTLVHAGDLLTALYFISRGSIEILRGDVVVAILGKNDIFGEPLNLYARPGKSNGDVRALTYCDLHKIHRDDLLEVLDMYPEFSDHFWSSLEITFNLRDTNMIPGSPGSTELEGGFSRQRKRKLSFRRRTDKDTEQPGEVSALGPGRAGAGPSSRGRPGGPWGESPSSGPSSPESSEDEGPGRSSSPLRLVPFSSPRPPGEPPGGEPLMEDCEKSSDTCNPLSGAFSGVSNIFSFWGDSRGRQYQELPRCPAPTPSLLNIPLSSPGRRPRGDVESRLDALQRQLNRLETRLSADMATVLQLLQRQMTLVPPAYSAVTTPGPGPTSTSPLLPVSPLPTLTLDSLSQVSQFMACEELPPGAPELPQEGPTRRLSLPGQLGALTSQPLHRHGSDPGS"},
  "source": "PubChem BioAssay AID720551",
  "about": "(National Center for Advancing Translational Sciences (NCATS), 2013)",
  "note": "Only a part is listed here, and it is no random draw. Some structures show a salt or complex split into parts, the way the source records it. Activity calls are given as the source filed them.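 How the source made its calls: active means maximum activity change below -70%; inconclusive means maximum activity change between -70% and -50%; inactive means maximum activity change above -50%.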 On the % scale 0 is the no-effect control and ±100 the full control effect.",
  "data": [
    {"target": "Voltage-gated inwardly rectifying potassium channel KCNH2 (Homo sapiens) (UniProt Q12809)", "experiment": "qHTS for Inhibitors of KCHN2 3.1: Wildtype qHTS", "conditions": "U2OS, BacMam KCNH2, thallium flux FluxOr; at 1.84 µM; hits give low values", "source_text": "Many antipsychotic drugs that inhibit the neurotransmitter dopamine also bind to hERG1 channel which might help explain their antipsychotic activity but also produces cardiac side effects. The discovery of the novel KCNH2 3.1 isoform offers a potential new target for the development of antipsychotic drugs without cardiac side effects. This proposal will use a high throughput thallium flux assay developed for KCNH2 to screen compounds that modulate the activity of KCNH2 3.1. The wild type KCNH2 channel will also be screened in parallel to help define the selective modulators of this KCNH2 3.1 potassium channel. The resulting compounds will be validated in electrophysiology experiments. The availability of animal models will allow future testing in vivo for effects on memory and other aspects of animal physiology linked with psychosis. NIH Chemical Genomics Center [NCGC] NIH Molecular Libraries Probe Centers Network [MLPCN] MLPCN Grant: MH096539 Assay Submitter (PI): James Barrow, Johns Hopkins University, Lieber Institute for Brain Development\nU2OS cells were resuspended in cell media containing 10% fetal calf serum (FCS) at a concentration of 2 million cells / mL. The solution was treated with the Wild-type virus at 2.03 x 10^8 / mL and allowed to incubate at room temperature in the dark. After 4 hours of incubation, DMEM + 10% fetal bovine serum (FBS) was added to the cell solution. Three microliter was then dispensed into a 1536 tissue culture treated black assay plates which were incubated overnight at 37 C. Two microliter of loading buffer (HBSS + HEPES + Red40 dye quencher + FluxOr dye) was added and the assay plates were incubated for 45 min at room temperature in the dark. […] A stimulation buffer was added to the plate and the second kinetic read (2 min) was obtained. The rate constant was calculated from the kinetic reads and normalized to the positive and negative DMSO controls.", "values": [
      {"smiles": "CCc1cc(C(=O)NCC2(N3CCCCC3)CCCCC2)sc1C", "activity change": "inactive: 6.45%"},
      {"smiles": "O=C(OC1CN2CCC1CC2)C1c2ccccc2C=Cc2ccccc21", "note": "(stereo not drawn)", "activity change": "inactive: 3.09%"},
      {"smiles": "O=C(O)c1cccc(Nc2c([N+](=O)[O-])cc([N+](=O)[O-])cc2[N+](=O)[O-])c1", "activity change": "inactive: -14.1%"},
      {"smiles": "N/C(=N\\O)c1c(N)no[n+]1[O-]", "activity change": "inactive: -3.51%"},
      {"smiles": "CCOC(=O)N1CCC(Nc2ccc(C)cc2)CC1", "activity change": "inactive: -5.59%"},
      {"smiles": "COc1ccc(C(=O)NCC2(N3CCOCC3)CCCCC2)cc1OC", "activity change": "inactive: 4.37%"},
      {"smiles": "O=C(NCC1(N2CCOCC2)CCCCC1)c1cc(Br)ccc1Cl", "activity change": "inactive: 0.0862%"},
      {"smiles": "COc1cc(C(=O)NCC2(N3CCOCC3)CCCCC2)cc(OC)c1C", "activity change": "inactive: -4.59%"},
      {"smiles": "c1ccc(CN2CCC(Nc3ccccc3)CC2)cc1", "activity change": "inactive: 6.31%"},
      {"smiles": "Cc1cc(N(CCCl)CCCl)ccc1C=O", "activity change": "inactive: 7.86%"},
      {"smiles": "CCCN1CCC(Nc2cc(OC)cc(OC)c2)CC1", "activity change": "inactive: -21.5%"},
      {"smiles": "CN(C)C1(CNC(=O)c2cccc(C#N)c2)CCCCC1", "activity change": "inactive: 2.94%"},
      {"smiles": "CCOC(=O)C(CC)C1=NC(C)(C)Cc2ccccc21.O=[N+]([O-])c1cc([N+](=O)[O-])c(O)c([N+](=O)[O-])c1", "note": "(stereo not drawn)", "activity change": "inactive: 0.62%"},
      {"smiles": "CC(C)(C)OC(=O)N1CCC(N(C(=O)c2ccccc2)c2ccc(Cl)cc2)CC1", "activity change": "inactive: 0.597%"},
      {"smiles": "N#Cc1ccc(C(=O)NCC2(N3CCCCC3)CCCCC2)cc1", "activity change": "inactive: 39.1%"},
      {"smiles": "O=C(NCC1(N2CCCCC2)CCCCC1)c1ccco1", "activity change": "inactive: -5.73%"},
      {"smiles": "CN(C)c1ccc(C(=O)NCC2(N3CCCCC3)CCCCC2)cc1", "activity change": "inactive: 50.2%"},
      {"smiles": "Cn1c(=O)[nH]cc(N(CCCl)CCCl)c1=O", "activity change": "inactive: -13.1%"},
      {"smiles": "Cc1ccccc1NC1(C#N)CCN(Cc2ccccc2)CC1", "activity change": "inactive: -2.46%"},
      {"smiles": "CCN1CCC(Nc2cccc(F)c2)CC1", "activity change": "inactive: -0.425%"},
      {"smiles": "Cc1ccc(NC2(C#N)CCN(Cc3ccccc3)CC2)cc1", "activity change": "inactive: 2.67%"},
      {"smiles": "Cc1ccc(C(=O)NCC2(N3CCCCC3)CCCCC2)o1", "activity change": "inactive: 32.1%"},
      {"smiles": "Fc1ccccc1NC1CCN(Cc2ccccc2)CC1", "activity change": "inactive: 3.29%"},
      {"smiles": "Cc1ccc(Nc2c([N+](=O)[O-])cc([N+](=O)[O-])cc2[N+](=O)[O-])cc1", "activity change": "inactive: 6.98%"},
      {"smiles": "COc1cc(OC)cc(C(=O)NCC2(N3CCCCC3)CCCCC2)c1", "activity change": "inactive: 43.9%"},
      {"smiles": "CC(=O)N(c1ccccc1)C1CCNCC1", "activity change": "inactive: -7.1%"},
      {"smiles": "CN1CCC(Nc2ccc(Cl)cc2)CC1", "activity change": "inactive: 20.3%"},
      {"smiles": "CCC(CO)(C(=O)OC1CN2CCC1CC2)c1ccccc1", "note": "(stereo not drawn)", "activity change": "inactive: 10.2%"},
      {"smiles": "COc1cc(OC)cc(C(=O)NCC2(N3CCOCC3)CCCCC2)c1", "activity change": "inactive: -3.74%"},
      {"smiles": "COc1cccc(C(=O)N(c2cc(C)cc(C)c2)C2CCN(C(=O)OC(C)(C)C)CC2)c1", "activity change": "inactive: -5.04%"},
      {"smiles": "CCCOc1ccc(C(=O)NCC2(N(C)C)CCCCC2)cc1", "activity change": "inactive: 55.3%"},
      {"smiles": "CC(C)(C)OC(=O)N1CCC(Nc2ccccc2)CC1", "activity change": "inactive: -3.64%"},
      {"smiles": "O=C(O)C1(Nc2ccccc2)CCN(Cc2ccccc2)CC1", "activity change": "inactive: 4.09%"},
      {"smiles": "CCOc1ncccc1C(=O)NCC1(N2CCOCC2)CCCCC1", "activity change": "inactive: 5.36%"},
      {"smiles": "CN1CCC(Nc2ccc(F)c(Cl)c2)CC1", "activity change": "inactive: -0.734%"},
      {"smiles": "N#CC1(Nc2ccccc2)CCN(Cc2ccccc2)CC1", "activity change": "inactive: 3.81%"},
      {"smiles": "O=C(NCC1(N2CCCCC2)CCCCC1)c1ccc(Cl)s1", "activity change": "inactive: 44.6%"},
      {"smiles": "O=C(OC1CN2CCC1CC2)C1c2ccccc2Oc2ccccc21", "note": "(stereo not drawn)", "activity change": "inactive: 1.74%"},
      {"smiles": "COc1ccc(Cl)cc1C(=O)NCC1(N2CCOCC2)CCCCC1", "activity change": "inactive: 6.43%"},
      {"smiles": "O=C1C(O)=C([N+](=O)[O-])C(=O)C(O)=C1[N+](=O)[O-]", "activity change": "inactive: 3.35%"},
      {"smiles": "O=C(NCC1(N2CCOCC2)CCCCC1)c1cc2ccccc2o1", "activity change": "inactive: 5.75%"},
      {"smiles": "O=C(NCC1(N2CCCCC2)CCCCC1)c1ccc(Cl)nc1", "activity change": "inactive: 6.09%"},
      {"smiles": "Cc1cc(C)cc(N(C(=O)c2ccccc2)C2CCN(C(=O)OC(C)(C)C)CC2)c1", "activity change": "inactive: -1.17%"},
      {"smiles": "CSc1ccccc1C(=O)NCC1(N2CCCCC2)CCCCC1", "activity change": "inactive: 1.05%"},
      {"smiles": "Cc1cccc(NC2(C#N)CCN(Cc3ccccc3)CC2)c1", "activity change": "inactive: -3.15%"},
      {"smiles": "O=C(NCC1(N2CCCCC2)CCCCC1)c1ccc(=O)[nH]c1", "activity change": "inactive: -0.0484%"},
      {"smiles": "O=C(NCC1(N2CCCCC2)CCCCC1)c1cccs1", "activity change": "inactive: 17.8%"},
      {"smiles": "COc1ccc(C(=O)NCC2(N3CCCCC3)CCCCC2)cc1", "activity change": "inactive: 4.17%"},
      {"smiles": "CC(C)(C)OC(=O)N1CCC(N(C(=O)c2ccccc2)c2ccc(F)cc2)CC1", "activity change": "inactive: 3.79%"},
      {"smiles": "COc1ccc(C(=O)NCC2(N3CCCCC3)CCCCC2)c(OC)c1OC", "activity change": "inactive: 16.5%"},
      {"smiles": "CCOC(=O)N1CCC(Nc2cccc(C)c2)CC1", "activity change": "inactive: -4.4%"},
      {"smiles": "COc1cc(C(=O)NCC2(N(C)C)CCCCC2)ccc1OC(F)F", "activity change": "inactive: -4.59%"},
      {"smiles": "O=P1(N(CCCl)CCCl)SCCCS1", "activity change": "inactive: -3.38%"},
      {"smiles": "CCCCOc1ccc(C(=O)NCC2(N3CCOCC3)CCCCC2)cc1", "activity change": "inactive: 48.4%"},
      {"smiles": "O=C(NCC1(N2CCCCC2)CCCCC1)c1ccc(F)cc1", "activity change": "inactive: 6.58%"},
      {"smiles": "COc1ccc(NC2CCN(CCc3ccccc3)CC2)c(OC)c1", "activity change": "inactive: 36.5%"},
      {"smiles": "CCOC(=O)N1CCC(Nc2ccc(F)cc2)CC1", "activity change": "inactive: 2.9%"},
      {"smiles": "CCOc1ccc(C)cc1CN(CCCl)CCCl", "activity change": "inactive: 3.11%"},
      {"smiles": "O=C1CCN(Cc2ccccc2)CC1", "activity change": "inactive: 0.162%"},
      {"smiles": "CN1CCN(CCOC(=O)C(O)(c2ccccc2)c2ccccc2)CC1", "activity change": "inactive: -9.74%"},
      {"smiles": "CC(C)c1ccc(C(=O)NCC2(N3CCOCC3)CCCCC2)cc1", "activity change": "inactive: 13.4%"},
      {"smiles": "COc1ccc(NC2CCN(C(=O)OC(C)(C)C)CC2)cc1", "activity change": "inactive: 5.22%"},
      {"smiles": "COc1cc(C(=O)NCC2(N3CCCCC3)CCCCC2)ccc1OC(F)F", "activity change": "inactive: 12.9%"},
      {"smiles": "O=C(NCC1(N2CCOCC2)CCCCC1)c1cc(=O)[nH]c2ccccc12", "activity change": "inactive: 8.03%"},
      {"smiles": "O=C(NCC1(N2CCCCC2)CCCCC1)c1cccc(C(F)(F)F)c1", "activity change": "inactive: 10.9%"},
      {"smiles": "O=[N+]([O-])c1cc([N+](=O)[O-])c(NCC2CCS(=O)(=O)C2)c([N+](=O)[O-])c1", "note": "(stereo not drawn)", "activity change": "inactive: 8.64%"},
      {"smiles": "CSc1ccc(C(=O)NCC2(N3CCOCC3)CCCCC2)cc1", "activity change": "inactive: 14.8%"},
      {"smiles": "O=C(NCC1(N2CCCCC2)CCCCC1)c1cccc([N+](=O)[O-])c1", "activity change": "inactive: 31.7%"},
      {"smiles": "CCN1CCC(Nc2ccc(Cl)cc2)CC1", "activity change": "inactive: 12.8%"},
      {"smiles": "N#CC1(Nc2ccccc2)CCN(CCc2ccccc2)CC1", "activity change": "inactive: -11.2%"},
      {"smiles": "Cc1ccc(C(=O)NCC2(N(C)C)CCCCC2)o1", "activity change": "inactive: 8.68%"},
      {"smiles": "CCCOc1ccc(C(=O)NCC2(N(C)C)CCCCC2)cc1OC", "activity change": "inactive: -11.6%"},
      {"smiles": "O=[N+]([O-])c1cc([N+](=O)[O-])c(Nc2ccc(Cl)cc2)c([N+](=O)[O-])c1", "activity change": "inactive: -2.25%"},
      {"smiles": "CN1CCC(Nc2cccc(F)c2)CC1", "activity change": "inactive: 7.78%"},
      {"smiles": "COc1ccc2c(c1O)-c1c(O)c(OC)cc3c1[C@H](C2)[N+](C)(C)CC3.O=[N+]([O-])c1cc([N+](=O)[O-])c([O-])c([N+](=O)[O-])c1[O-]", "activity change": "inactive: 3.86%"},
      {"smiles": "O=C(NCC1(N2CCCCC2)CCCCC1)c1cncc(Br)c1", "activity change": "inactive: -19.2%"},
      {"smiles": "O=C(OC1CN2CCC1CC2)c1ccc([N+](=O)[O-])cc1", "note": "(stereo not drawn)", "activity change": "inactive: 16.2%"},
      {"smiles": "COc1cc(OC)c(C(=O)NCC2(N(C)C)CCCCC2)cc1OC", "activity change": "inactive: -9.36%"},
      {"smiles": "O=C(NCC1(N2CCOCC2)CCCCC1)c1cc(F)c(F)cc1Cl", "activity change": "inactive: 0.474%"},
      {"smiles": "COc1ccc(CN(CCCl)CCCl)cc1Cl", "activity change": "inactive: -13.2%"},
      {"smiles": "O=[N+]([O-])c1cc([N+](=O)[O-])c(OC2CCCCC2O)c([N+](=O)[O-])c1", "note": "(stereo not drawn)", "activity change": "inactive: -7.12%"},
      {"smiles": "CN(C)c1cccc(C(=O)NCC2(N3CCCCC3)CCCCC2)c1", "activity change": "inactive: 3.88%"},
      {"smiles": "CC(C)c1ccc(NC2CCN(C(=O)OC(C)(C)C)CC2)cc1", "activity change": "inactive: -11.9%"}
    ]}
  ]
}
